Patent US20220389009A1, “SUBSTITUTED 1,6-NAPHTHYRIDINE INHIBITORS OF CDK5” (Goldfinch Bio, Inc., priority 2019, published 2022)

The chains behind the UniProt entries cited, without tags or fusion partners. Residues count along the entry.
UniProt Q00535, whole entry: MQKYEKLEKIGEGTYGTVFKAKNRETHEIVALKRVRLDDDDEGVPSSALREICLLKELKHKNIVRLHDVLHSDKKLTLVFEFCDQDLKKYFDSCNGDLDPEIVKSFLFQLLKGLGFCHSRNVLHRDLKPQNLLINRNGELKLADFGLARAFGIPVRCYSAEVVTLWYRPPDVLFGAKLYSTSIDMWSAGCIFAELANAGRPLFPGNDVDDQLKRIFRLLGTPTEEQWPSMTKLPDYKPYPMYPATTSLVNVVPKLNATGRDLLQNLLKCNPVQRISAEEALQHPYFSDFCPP
UniProt Q15078, 99-307 partner limits assumed: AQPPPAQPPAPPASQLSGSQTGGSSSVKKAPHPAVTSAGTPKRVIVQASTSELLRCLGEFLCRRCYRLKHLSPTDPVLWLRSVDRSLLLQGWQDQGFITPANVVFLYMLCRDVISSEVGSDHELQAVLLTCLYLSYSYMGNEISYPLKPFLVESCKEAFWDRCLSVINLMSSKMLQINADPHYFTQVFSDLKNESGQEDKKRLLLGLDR

Columns and labels:
CDK5/p25 = CDK5/p25 (Homo sapiens, UniProt Q00535); assay: CDK5 mobility shift assay (enzymatic activity of CDK5/p25)
CDK2/CycA2 = CDK2/CycA2 (Homo sapiens, UniProt P24941); assay: CDK2 mobility shift assay (enzymatic activity of CDK2/CycA2); settings: read-out: CDK2 IC50; 1.25 nM CDK2/CycA2, 37 μM ATP, FL Peptide 18, 120 min at room temperature

IC50 (CDK5/p25; read-out: CDK5 IC50, 0.154 nM CDK5/p25, FL peptide 29, 60 min at room temperature): > 1000 nM
IC50 (CDK2/CycA2): > 1000 nM
SMILES: OCc1ccn(-c2ccc(Nc3cc4nc(NC5CC6CC5CN6)ccc4cn3)c(F)c2)n1 (single isomer, unassigned)
CDK5/CDK2 specificity (CDK5/p25; fold more active against CDK5 than CDK2): + (10-fold or less more active against CDK5 than CDK2)
